Among the test systems are Ba/F3 KIF5B-RET; Ba/F3 KIF5B-RET-G810S; Ba/F3 KIF5B-RET-G810C; Ba/F3 KIF5B-RET-G810R.
Test in all cases: In vitro cell viability assay (CellTiter-Glo)
What all share (format): cell-based
Common to all, as to settings: Mus musculus, BaF3, 72 h
A general note: In ATP-based viability assays light output follows the ATP content of the culture.

The IC50 is the concentration that inhibits the measured activity by half. Read a high IC50 as weaker potency in that assay. As to `CNC(=O)c1ccc2c(Cl)c(-c3nn(C(C)(C)C)c4ncnc(N)c34)[nH]c2c1` [Compound A], the IC50 is 0.02 µM with Ba/F3 KIF5B-RET, 0.0287 µM in the experiment with Ba/F3 KIF5B-RET-G810S, 0.0424 µM in the experiment on Ba/F3 KIF5B-RET-G810C and 0.0374 µM with Ba/F3 KIF5B-RET-G810R.

Source of the values: patent US20250064809A1, “Inhibitors of Mutant RET Kinases for use in Treating Cancer” (Stemline Therapeutics, Inc., priority 2021, published 2025).
